Laboratory results from PubChem BioAssay AID1136 (Sanford-Burnham Center for Chemical Genomics, 2008).
Some of the results follow. Some results for these compounds are left out of this collection, so the calls shown say nothing about other tests. The source made the active and inactive calls.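 Rule for the calls: active = activation factor at least 2 at 20 µM; inactive = the rest.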

Amino acid sequences for entries named in this document (tags omitted).
UniProt P05186, whole entry: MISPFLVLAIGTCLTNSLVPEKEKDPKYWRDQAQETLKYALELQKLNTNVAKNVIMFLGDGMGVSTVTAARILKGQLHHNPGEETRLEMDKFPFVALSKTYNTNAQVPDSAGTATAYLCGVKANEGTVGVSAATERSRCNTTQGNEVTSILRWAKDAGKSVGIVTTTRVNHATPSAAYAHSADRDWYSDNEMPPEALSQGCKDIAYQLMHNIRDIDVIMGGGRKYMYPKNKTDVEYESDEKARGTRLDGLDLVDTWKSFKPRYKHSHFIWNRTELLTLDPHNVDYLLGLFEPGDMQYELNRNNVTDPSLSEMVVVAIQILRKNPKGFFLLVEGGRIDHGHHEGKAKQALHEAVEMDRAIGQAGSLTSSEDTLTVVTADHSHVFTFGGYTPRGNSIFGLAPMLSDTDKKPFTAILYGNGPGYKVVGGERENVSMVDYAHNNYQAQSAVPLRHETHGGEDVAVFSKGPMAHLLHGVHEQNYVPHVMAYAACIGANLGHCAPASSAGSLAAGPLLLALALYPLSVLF

What follows are molecules tested against Alkaline phosphatase, tissue-nonspecific isozyme (Homo sapiens) (UniProt P05186) (assay: activation of human TNAP, high DEA acceptor – biochemical, luminescence, uHTS, primary screen (AID 1136)). Details: purified TNAP, CDP-star luminescence, 1 M DEA, 30 min, at 20 µM; active compounds read high, 0 = EDTA background, 1 = DMSO-only activity.
`O=C(NCC1(N2CCCCC2)CCCCC1)c1cc([N+](=O)[O-])ccc1Cl` was tested, and the activation factor was “inactive”.
With `CC(C)N1C(=O)CC2(CCN(CCOC(=O)C(O)(c3ccccc3)c3ccccc3)CC2)C1=O` the activation factor was “inactive”.
With `Cc1ccccc1C(=O)NCC1(N2CCCCC2)CCCCC1` the activation factor was inactive: 1.1.
With `CN(C)C1CCCC1OC(=O)C(O)(c1ccccc1)c1ccccc1` (centres undefined) the activation factor was inactive: 1.1.
With `C=CCN1CCN(CCOC(=O)C(O)(c2ccccc2)c2ccccc2)CC1` the activation factor was inactive: 1.1.
`CCN1CCCC(OC(=O)C2(O)c3ccccc3C=Cc3ccccc32)C1` (centres undefined) was tested, and the activation factor was inactive: 1.1.
In the case of `COc1cccc(C(=O)NCC2(N3CCCCC3)CCCCC2)c1`, the activation factor was “inactive”.
`O=C(OC1CN2CCC1CC2)C(CO)(c1ccccc1)c1ccccc1` (centres undefined) was tested, and the activation factor was “inactive”.
In the case of `CN(C)c1cccc(C(=O)NCC2(N(C)C)CCCCC2)c1`, the activation factor was inactive: 1.1.
